Measured values reported in US20090325888A1, “Peptides having a health benefit and compositions comprising them” (priority 2005, published 2009).

What was measured:
[1] = simulated in-vitro gastrointestinal digestion of protein hydrolysate (PH); type: in vitro ADME; conditions: peptide within PH, artificial GIT
From the text: Milk proteins and milk protein hydrolysates are commonly known as precursors of a large range of ACE inhibitory peptides. After consumption, the proteins and peptides are subjected to various digestive enzymatic processes in the human gastrointestinal tract, which results in the release of in-vivo ACE inhibitory peptides. In order to assess the break-down of the identified bioactive peptides and the formation of novel active peptides after human consumption, PH was processed by an artificial gastro-intestinal tract, which simulated conditions typically found in the human body. At certain times samples were taken from the GIT model system. These were also analysed using the on-line HPLC-Bioassay-MS or HRS-MS system.
Digestion of protein hydrolysate (hereafter PH) a hydrolyzed casein protein isolate obtained from DSM (Delft, The Netherlands). The protein hydrolysate (PH) was prepared by incubation of 10 wt % potassium caseinate with overproduced and essentially pure endoprotease from Aspergillus niger as described in WO 02/45524.
The digestion procedure was performed using a dissolution model (Vankel) with a 100 ml flask. […]
The samples were transferred into a beaker and were heated in a microwave till boiling. […] The total N concentration was determined and converted to protein level using the Kjeldahl factor of casein (6.38). […]

[2] = simulated in-vitro gastro-intestinal digestion of synthetic MAP and ITP (micro-dissolution); type: in vitro ADME; conditions: synthetic peptide
From the text: For the dissolution the following solutions were used: […]

| Compound | stability in the gastro-intestinal tract [1] | stability under gastro-intestinal conditions [2] |
| --- | --- | --- |
| CC[C@H](C)[C@H](N)C(=O)N[C@H](C(=O)N1CCC[C@H]1C(=O)O)[C@@H](C)O [ITP, Ile-Thr-Pro] | stable in the human intestinal tract; also recorded: high resistance against GIT digestion | excellent stability under gastrointestinal conditions |
| CSCC[C@H](N)C(=O)N[C@@H](C)C(=O)N1CCC[C@H]1C(=O)O [MAP, Met-Ala-Pro] | stable in the human intestinal tract; also recorded: high resistance against GIT digestion | – |

Entries after “also recorded” stand apart in the source; their conditions may differ.
